Our source for the Ratio values is ChEMBL document CHEMBL1130156, “Evolution of the Dmt-Tic pharmacophore: N-terminal methylated derivatives with extraordinary delta opioid antagonist activity” (J Med Chem, 1997).

Amino acid sequences for entries named in this document (tags omitted).
UniProt P33533, whole entry, looked up: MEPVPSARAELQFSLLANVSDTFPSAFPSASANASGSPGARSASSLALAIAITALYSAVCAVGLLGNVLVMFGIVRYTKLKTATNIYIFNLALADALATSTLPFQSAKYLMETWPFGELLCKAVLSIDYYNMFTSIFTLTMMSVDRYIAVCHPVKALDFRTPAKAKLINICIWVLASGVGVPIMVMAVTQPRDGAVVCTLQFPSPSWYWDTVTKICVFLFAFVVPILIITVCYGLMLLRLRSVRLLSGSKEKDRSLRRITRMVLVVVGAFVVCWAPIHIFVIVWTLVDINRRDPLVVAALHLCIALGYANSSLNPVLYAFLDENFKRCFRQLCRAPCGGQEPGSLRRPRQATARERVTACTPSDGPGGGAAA
UniProt P33535, whole entry, looked up: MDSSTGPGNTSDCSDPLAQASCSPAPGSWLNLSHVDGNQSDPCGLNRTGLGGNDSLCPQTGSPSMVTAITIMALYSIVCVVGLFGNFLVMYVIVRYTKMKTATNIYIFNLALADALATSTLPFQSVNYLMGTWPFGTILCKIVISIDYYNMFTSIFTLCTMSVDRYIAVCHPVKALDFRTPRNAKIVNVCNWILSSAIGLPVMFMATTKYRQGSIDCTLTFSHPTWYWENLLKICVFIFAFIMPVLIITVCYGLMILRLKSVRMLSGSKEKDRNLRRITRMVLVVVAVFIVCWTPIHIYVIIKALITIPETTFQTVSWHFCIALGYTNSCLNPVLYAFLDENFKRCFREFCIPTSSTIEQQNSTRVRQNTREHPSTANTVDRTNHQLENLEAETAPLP

This assay addresses Opioid receptors; mu & delta (Rattus norvegicus) (UniProt P33533+P33535). Kind of assay: Ratio of the affinity for delta and mu opioid receptors (Ki mu/Ki delta) shows delta opioid receptor selectivity. In kind it is protein assay.

Each structure is given as a SMILES string.

In the case of `Cc1cc(O)cc(C)c1C[C@H](N)C(=O)N1Cc2ccccc2CC1C(N)=O` (stereo partly specified), the Ratio amounted to 227.
